# Only a part is listed here, and it is no random draw. Some tests of the compounds listed are not included; inactive here does not mean inactive elsewhere. Active and inactive are the calls of the source.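 The calls were made as follows: active = z-score above 3 at both the 24 hr and the 30 hr optical density reads; inactive = the rest, inconclusive results apart.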
# Experiment: restorers of sdo1-deficient yeast growth – S. cerevisiae, bone marrow failure model, primary screen (AID 817);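 also: z-score against mean and SD of all compound wells on the same plate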
# Conditions: S. cerevisiae sdo1-depleted JHY4D growth rescue, OD600 30 h; at 10 µM; active compounds read high; pdr5 snq2 efflux-pump mutant strain
row,Structure (SMILES),z-score
1,CN(C)c1cccc(C(=O)NCC2(N(C)C)CCCCC2)c1,inactive: -0.22
2,O=C(OC1CN2CCC1CC2)C(CO)(c1ccccc1)c1ccccc1 (stereo not given),inactive: 0.1
3,CCN1CCCC(OC(=O)C2(O)c3ccccc3C=Cc3ccccc32)C1 (stereo not given),inactive: 1.23
4,CN(C)C1CCCC1OC(=O)C(O)(c1ccccc1)c1ccccc1 (stereo not given),inactive: -0.35
5,CC(C)N1C(=O)CC2(CCN(CCOC(=O)C(O)(c3ccccc3)c3ccccc3)CC2)C1=O,inactive: 0.8

# From PubChem BioAssay AID817 (Emory University Molecular Libraries Screening Center, 2007)
